This is a selection; strong and weak results do not stand in their true shares. Inconclusive results are not listed. Calls of active or inactive are those of the source. The call rests on the fitted dose curve; in most records, active means well fitted activation curve with a large enough effect; inconclusive means small, poorly fitted or top-dose-only effect; inactive means no such curve, though single readings can be large or run the other way.
Assay: qHTS Assay for Agonists of the Thyroid Stimulating Hormone Receptor: Activators of Intracellular cAMP Concentrations in Parental HEK 293; further: nearly all actives have a fitted effect of over 55% in size
Conditions: parental HEK293 CNG cAMP sensor, membrane potential fluorescence
Source text: NIH Chemical Genomics Center [NCGC]
NIH Molecular Libraries Screening Centers Network [MLSCN]
PI Name: Dr. Marvin Gershengorn
This cell based assay utilized a cyclic nucleotide gated ion channel (CNG) as a biosensor for cAMP induction. HEK 293 cells stably expressing the modified CNG were purchased from BD biosciences (http://www.atto.com/products/actone/features_benefits.shtml) . Stimulation of cAMP production causes the CNG to open and subsequent membrane depolarization to occur. A fluorescent membrane potential dye (BD biosciences) was utilized to detect cAMP stimulation in cells.
The cells were maintained in DMEM medium (Invitrogen) containing 10 % FBS (Hyclone), 100 units/ml Penicillin, 100 ug/ml Streptomycin (Invitrogen), and 250 ug/ml Geneticin (Invitrogen) and 1 ug/ml Puromycin (Invitrogen) at 37C in 5% CO2. […]
High Throughput Screening. […] 23 nl/well compound or control was then added to the assay plates, which were incubated for additional 30 min before reading a Envision fluorescence plate reader (Perkin Elmer) in bottom-read mode for fluorescence intensity (emission at 590 nm).
Keywords: cAMP, CNG Ion Channel, quantitative high throughput screening, qHTS, HTS, probe identification, CNG, cAMP, cyclic nucleotide gated ion channel PubChem
Potency means the concentration at half of the fitted maximal effect.

| SMILES | Potency |
| --- | --- |
| COc1ccc(C[C@H](C)NC[C@@H](O)c2ccc(O)c(NC=O)c2)cc1 | active: 1.3 nM |
